# Assay results from US20260083708A1, “IL-17 MODULATORS AND USES THEREOF” (NNOCARE PHARMA INC., priority 2024, published 2026).
# Chains of the proteins cited; added tags and fusions are not shown. Residues count along the entry.
# UniProt Q16552, 24-155 limits assumed: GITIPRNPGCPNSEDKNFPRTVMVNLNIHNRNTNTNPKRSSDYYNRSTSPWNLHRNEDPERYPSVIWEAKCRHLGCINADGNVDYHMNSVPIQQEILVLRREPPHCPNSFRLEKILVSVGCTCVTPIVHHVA
# Tests used:
# [1] = tested on: IL-17AF-induced IL-17 signaling pathway; assay: Inhibition of IL-17AF-induced IL-17 signaling pathway; conditions: read-out: IC50 for Inhibiting IL-AF Signaling; IL-17AF used instead of IL-17AA
# Description: (§1) Interleukin-17 (IL-17) reporter cell line (HEK-Blue IL-17, InvivoGen, Catalog Number hkb-i117) is created by genetically engineering human IL-17RA/IL-17RC heterodimeric receptor and downstream adapter protein ACT1 into human embryonic kidney 293 cells (HEK293). These cells also express secreted embryonic alkaline phosphatase (SEAP) reporter gene induced by NF-κB and AP-1. Therefore, IL-17AA can activate NF-κB and AP-1 signaling pathways inside the cells by binding to IL-17RA/RC on cell membrane, leading to expression of SEAP protein. After a colorimetric reaction between SEAP protein and Quanti-Blue solution, the absorbance at 620 nm is measured using a microplate reader (BioTek H1M, Agilent, Catalog Number SH1M-SN) to determine IL-17AA-activated signaling pathway.
# In the experiment, HEK-Blue IL-17 cells were cultured at 37° C. under 5% CO2 conditions using the recommended medium from InvivoGen's instruction. Compounds were serially diluted starting from 10 μM. […] The group without tested compound had the highest absorbance at 620 nm, and the group without IL-17AA had the lowest absorbance at 620 nm.
# (§2) Therefore, the percentage of inhibition of tested compound was calculated as
# Experimental results were analyzed using XLfit (IDBS) for 4-parameter nonlinear fitting analysis to provide the IC50 value for each tested compound (Table 1). […]
# IL-17AA and IL-17RA = IL-17AA and IL-17RA (Homo sapiens, UniProt Q16552); assay: Competitive inhibition of human IL-17AA and IL-17RA binding (HTRF); conditions: read-out: IC50 for Inhibiting IL-AA/IL-RA Binding; recombinant IL-17AA (His-tag) and IL-17RA (hFc-tag)
# Description: Example 42. Competitive Inhibition of Human IL-17AA and IL-17RA Binding
# Recombinant IL-17AA (His-tag, Catalog Number 12047-H07B) and IL-17RA (hFc-tag, Catalog Number 10895-H02H) were purchased from Sino Biological. In the experiment, 10 μL of IL-17AA (1 nM) or IL-17RA (1 nM) was added to 10 μL of anti-6His-Tb (0.4 nM, Revvity, Catalog Number 61HISTLF) or anti-human IgG-d2 (1 μg/mL, anti-human IgG-d2, Revvity, Catalog Number 61HFCDAF), respectively and incubated at room temperature for 1 hour. Compounds were serially diluted starting from 10 μM. 5 μL of each compound solution was incubated with 5 μL of a mixture of IL-17AA and anti-6His-Tb at room temperature for 2 hours. After pre-incubation, to which was added 10 μL of a mixture of IL-17RA and anti-human IgG-d2, and incubation was continued for additional 20 minutes. Subsequently, a microplate reader (Envision, PerkinElmer) was used to detect fluorescence intensity at 615 nm and 665 nm, and the ratio of intensity thereof indicates the degree of IL-17AA and IL-17RA interaction. […]
# as §2
# Experimental results were analyzed using XLfit (IDBS) for 4-parameter nonlinear fitting analysis, to provide the IC50 value for each tested compound (Table 1).
# [2] = tested on: IL-17AA-induced IL-17 signaling pathway; assay: Inhibition of IL-17AA-induced IL-17 signaling pathway in HEK-Blue IL-17 reporter cells (SEAP); conditions: read-out: IC50 for Inhibiting IL-AA Signaling; HEK-Blue IL-17 cells, IL-17AA 2.5 ng/mL, 20 hours
# Description: Example 43. Inhibition of IL-17AA-Induced IL-17 Signaling Pathway
# as §1
# In the experiment, HEK-Blue IL-17 cells were cultured at 37° C. under 5% CO2 conditions using the recommended medium from InvivoGen's instruction. […] The group without tested compound had the highest absorbance at 620 nm, and the group without IL-17AA had the lowest absorbance at 620 nm.
# as §2
# Experimental results were analyzed using XLfit (IDBS) for 4-parameter nonlinear fitting analysis to provide the IC50 value for each tested compound (Table 1).
compound,measurement,setting,value
Cc1nonc1C(=O)N[C@H](C(=O)Nc1ccc([C@H](C)[C@@H](NC(=O)N(C)C2CC2)c2ncnn2CC2CC2)cc1F)C(C1CC1)C1CC1,IC50,[1],1.5 nM
same,IC50,IL-17AA and IL-17RA,6.5 nM
same,IC50,[2],0.7 nM
